Consider one substance from US20090214670A1, “Rhcc peptide and uses thereof” (Optovent AB, priority 2005, published 2009).

This data set is classed as physicochemical. From the text: The calculated molecular mass of RHCC-IL-6 monomer is 28.3 kDa. […] The corresponding value for the tetramer is […].

“RHCC-IL-6 fusion molecule: fusion protein: histidine tag, human interleukin-6 sequence, GS linker, RHCC sequence; forms a tetramer”: the “solubility in aqueous media” value is recorded as “soluble in aqueous media”.
